Values belong to the compound of their own block, whether it stands above or below them.
Experiments:
[1] = test system: sigma-2; test: in vitro radioligand competition binding, sigma-2; parameters: species or system mammalian; conditions: similar to haloperidol
Description: (§1) FIG. 6. Target profiling. (a) Heat map depiction of in vitro mammalian target binding assay results across 45 candidate targets. Small molecules were computationally clustered by target profile similarity (vertical brackets) and targets were clustered by chemical binding profiles (horizontal brackets). […] (b) In vitro mammalian target binding receptor competition assays using cloned sigma-1 or -2, as indicated. Radioligand binding was measured after co-incubation with an unlabeled competitor, either haloperidol (positive control, black) or finazine (red). (c) Correlation plots of compound potency in the zebrafish strobe assay versus in vitro potency in simga-1 or -2 binding assays, as indicated. Each point represents a different compound in the finazine class.
(§2) To begin to determine the mechanism(s) of action of the newly discovered small molecules we screened them against a panel of 45 candidate neuronal targets in vitro (FIG. 6a). In each case we tested their ability to disrupt the interaction between a candidate neuronal protein and a known high-affinity radiolabeled ligand.

The chains behind the UniProt entries cited, without tags or fusion partners.
UniProt Q99720, whole entry: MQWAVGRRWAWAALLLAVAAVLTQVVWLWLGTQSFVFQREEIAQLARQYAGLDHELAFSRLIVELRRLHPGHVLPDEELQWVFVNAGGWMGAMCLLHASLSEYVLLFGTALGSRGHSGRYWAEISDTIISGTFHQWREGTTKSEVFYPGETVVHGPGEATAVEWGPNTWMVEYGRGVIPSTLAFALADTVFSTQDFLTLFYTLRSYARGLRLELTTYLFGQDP

[2] = test system: mice; test: psychostimulant (PCP)-induced locomotor assay; conditions: for baseline locomotor activity: IP, before PCP
From the text: To determine if finazine (compound (1)) has antipsychotic-like activity, we tested this compound in a psychostimulant-induced schizophrenia model. In humans, acute administration of psychostimulants such as phencyclidine (PCP), a NMDA receptor antagonist, induces psychosis-like symptoms in common with schizophrenia [Jentsch, J. D. & Roth, R. H. The Neuropsychopharmacology of Phencyclidine: From NMDA Receptor Hypofunction to the Dopamine Hypothesis of Schizophrenia. Neuropsychopharmacology 20, 201-225 (1999)]. In mice, PCP induces a hyperlocomotion phenotype that can be reversed by haloperidol and other typical and atypical antipsychotic drugs [Gleason, S. D. & Shannon, H. E. Blockade of phencyclidine-induced hyperlocomotion by olanzapine, clozapine and serotonin receptor subtype selective antagonists in mice. Psychopharmacology (Berl.) 129, 79-84 (1997); Freed, W. J., Bing, L. A. & Wyatt, R. J. Effects of neuroleptics on phencyclidine (PCP)-induced locomotor stimulation in mice. Neuropharmacology 23, 175-181 (1984)]. To determine if finazine might have antipsychotic-like activity in mammals we injected three groups of mice each with graded doses (25, 12.5 and 6.25 mg/kg). […]
Male C57BL/6J mice (9-10 weeks at testing) were obtained from Jackson Laboratories (Bar Harbor, Me.). […] Locomotor activity was measured in Plexiglas square chambers (27.3×27.3×20.3 cm; Med Associates Inc., St Albans, Vt.) surrounded by infrared photobeam sources and detectors. […] Mice were injected with 10% DMSO vehicle or finazine (6.25, 12.5, or 25 mg/kg in 10% DMSO) and locomotor activity was monitored for 30 m (baseline total distance). Mice were then administered saline vehicle or PCP (5 mg/kg) and activity was measured for an additional 60 m. […] Locomotor activity was measured as total distance traveled (cm), assessed via infrared beam breaks. Locomotion prior to PCP administration (baseline, 0-30 m) and locomotion post PCP administration (PCP, 30-60 m) were analyzed by one-way analysis of variance (ANOVA) with finazine (0, 6.25, 12.5, 25) as the independent variable. […]

[3] = target: sigma-1 (Homo sapiens, UniProt Q99720); test: in vitro radioligand competition binding, sigma-1; parameters: species or system mammalian; conditions: for Ki: read-out: Ki for sigma-1, six best Ki values of 1170 binding assays
Description: as §1, §2

[4] = test system: mice; test: contextual fear conditioning test; conditions: 24 h after footshocks; vehicle about 60%
Description: FIG. 7. Finazine has neuroactive effects in a mouse freezing assay. Contextual Fear Conditioning Test using male C57BL/6J mice treated with 10% DMSO vehicle or finazine, as indicated. Locomotion was measured during the exposure to the conditioned context 24 h post shock treatment. Data were analyzed by one-way analysis of variance (ANOVA) and the Fisher's PLSD post hoc test. (*p=0.0328).
To determine whether or not compounds discovered in the zebrafish assay retain activity in mammals, we turned to a well-established assay of behavioral freezing in mice, contextual fear conditioning. […] Mice were treated with either 10% DMSO vehicle or finazine (compound (1)), and evaluated for their freezing response to the conditioning chamber twenty-four hours after receiving a series of mild (0.5 mA) footshocks. […]
Male C57BL/6J mice (9-10 weeks at testing) were obtained from Jackson Laboratories (Bar Harbor, Me.). […] Locomotor activity was measured in Plexiglas square chambers (27.3×27.3×20.3 cm; Med Associates Inc., St Albans, Vt.) surrounded by infrared photobeam sources and detectors. […] Mice were injected with 10% DMSO vehicle or finazine (6.25, 12.5, or 25 mg/kg in 10% DMSO) and locomotor activity was monitored for 30 m (baseline total distance). Mice were then administered saline vehicle or PCP (5 mg/kg) and activity was measured for an additional 60 m. […]

Ki values for sigma-1 (in words) ([3]; similar to haloperidol): low nM
SMILES: Cc1cccc(NC(=O)CCN2CCN(C/C=C/c3ccccc3)CC2)c1
Ki values for sigma-2 (in words) [1]: low nM | effect on PCP-induced hyperactivity ([2]; PCP 5 mg/kg 30 min after compound): reduced the psychostimulant effect of PCP | baseline locomotor activity ([2]; lowest dose 6.25 mg/kg): unaffected | baseline locomotor activity ([2]; two higher doses (25 and 12.5 mg/kg)): decrease in baseline locomotor activity | time immobile (freezing) in conditioned context [4]: less than 40%

Ki [3]: 0.8 nM
SMILES: Cc1cc(NC(=O)CCN2CCCCC2)ccc1Br

Ki [3]: 1.4 nM
SMILES: Cc1cc(C)cc(NC(=O)CCN2CCCCCC2)c1

Ki [3]: 1.7 nM
SMILES: Cc1ccc(NC(=O)CCN2CCCCCC2)cc1C

Source: patent publication US10301318B2, “Neuroactive compounds and methods of using the same” (THE GENERAL HOSPITAL CORPORATION, priority 2014, dated 2019)
